# Laboratory results from PubChem BioAssay AID731 (The Scripps Research Institute Molecular Screening Center, 2007).
# The chains behind the UniProt entries cited, without tags or fusion partners. Residues count along the entry.
# UniProt P37231, 232-505 limits assumed: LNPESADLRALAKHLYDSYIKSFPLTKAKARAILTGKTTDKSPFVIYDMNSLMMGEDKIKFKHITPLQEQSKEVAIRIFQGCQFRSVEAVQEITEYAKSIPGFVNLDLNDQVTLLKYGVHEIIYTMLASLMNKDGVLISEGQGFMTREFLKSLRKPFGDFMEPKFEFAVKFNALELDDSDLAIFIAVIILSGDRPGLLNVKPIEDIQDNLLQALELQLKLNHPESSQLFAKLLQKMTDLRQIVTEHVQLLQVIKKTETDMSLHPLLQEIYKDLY
# UniProt Q9Y6Q9, whole entry partner: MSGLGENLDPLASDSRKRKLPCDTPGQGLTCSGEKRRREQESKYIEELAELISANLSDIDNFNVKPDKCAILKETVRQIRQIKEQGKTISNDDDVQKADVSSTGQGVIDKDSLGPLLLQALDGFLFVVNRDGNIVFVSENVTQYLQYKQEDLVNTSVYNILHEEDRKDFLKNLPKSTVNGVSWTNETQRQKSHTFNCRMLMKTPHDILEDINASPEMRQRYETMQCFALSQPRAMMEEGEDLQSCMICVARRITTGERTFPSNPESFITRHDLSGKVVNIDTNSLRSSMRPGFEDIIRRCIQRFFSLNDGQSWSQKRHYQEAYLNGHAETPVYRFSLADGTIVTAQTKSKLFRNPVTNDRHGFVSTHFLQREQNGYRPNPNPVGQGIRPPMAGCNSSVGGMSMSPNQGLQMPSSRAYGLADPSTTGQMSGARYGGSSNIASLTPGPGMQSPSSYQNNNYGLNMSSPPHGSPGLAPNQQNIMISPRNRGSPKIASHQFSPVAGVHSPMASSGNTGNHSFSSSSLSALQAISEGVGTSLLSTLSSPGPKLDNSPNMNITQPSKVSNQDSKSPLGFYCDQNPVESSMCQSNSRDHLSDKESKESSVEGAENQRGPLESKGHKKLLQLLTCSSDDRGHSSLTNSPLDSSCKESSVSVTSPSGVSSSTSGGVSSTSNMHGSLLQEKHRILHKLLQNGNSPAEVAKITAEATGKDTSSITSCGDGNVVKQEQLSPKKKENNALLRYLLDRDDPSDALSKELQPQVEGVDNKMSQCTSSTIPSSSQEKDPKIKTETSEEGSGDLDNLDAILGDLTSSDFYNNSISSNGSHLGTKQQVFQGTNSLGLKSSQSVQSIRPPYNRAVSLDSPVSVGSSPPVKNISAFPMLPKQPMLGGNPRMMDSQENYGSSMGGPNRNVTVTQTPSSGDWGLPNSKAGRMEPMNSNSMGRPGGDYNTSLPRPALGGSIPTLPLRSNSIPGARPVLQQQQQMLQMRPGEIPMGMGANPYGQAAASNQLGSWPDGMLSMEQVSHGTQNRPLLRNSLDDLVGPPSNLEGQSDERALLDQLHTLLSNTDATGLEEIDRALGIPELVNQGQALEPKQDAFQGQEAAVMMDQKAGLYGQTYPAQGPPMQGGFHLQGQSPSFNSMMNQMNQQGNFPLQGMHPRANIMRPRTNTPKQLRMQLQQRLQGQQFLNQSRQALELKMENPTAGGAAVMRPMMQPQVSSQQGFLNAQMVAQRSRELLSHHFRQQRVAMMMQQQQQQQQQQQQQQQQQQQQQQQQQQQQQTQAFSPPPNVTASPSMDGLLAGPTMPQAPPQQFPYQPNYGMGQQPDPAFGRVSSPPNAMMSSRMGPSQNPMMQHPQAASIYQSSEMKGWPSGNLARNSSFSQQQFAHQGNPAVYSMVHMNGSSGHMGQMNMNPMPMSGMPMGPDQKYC
# The entries are a selection whose mix differs from that of the whole data set. Calls of active or inactive are those of the source. Cut-off read from the data, not from the text of the source: active = activation above about 23%; inactive = the rest.
# Biological target: Peroxisome proliferator-activated receptor gamma (Homo sapiens) (UniProt P37231)
# Test: PPARgamma agonists recruiting SRC-3 coactivator, primary screen, biochemical (AID 731);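 note: 0% = DMSO and 100% = reference agonist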
# Settings: biochemical PPARgamma/SRC-3 coactivator recruitment assay; at 8 µM; hits give high values
row,Compound,activation
1,CCOC(=O)c1ccc(NP(C)(=O)Oc2ccccc2)cc1 (configuration not stated),inactive: 4.75%
2,Cc1ccc(NP(C)(=O)Oc2ccccc2)c(C)c1 (configuration not stated),inactive: -3.42%
3,COc1ccccc1OP(C)(=O)Nc1ccc(C)cc1 (configuration not stated),inactive: -3.67%
4,CCN(CC)CCCOC(=O)C(O)(c1ccccc1)c1ccccc1,inactive: 3.89%
5,CN(C)CCOC(=O)C(O)(c1ccccc1)C1CCCC1 (configuration not stated),inactive: -1.66%
6,COc1ccc(OP(C)(=O)Nc2ccccn2)cc1 (configuration not stated),inactive: 5.91%
7,CCc1ccc(OP(C)(=O)O)cc1,inactive: 1.96%
8,COc1ccccc1OP(C)(=O)Nc1ccc(C)cc1C (configuration not stated),inactive: -3.86%
9,CP(=O)(Nc1ccccn1)Oc1ccccc1 (configuration not stated),inactive: -8.14%
10,Cc1c(NP(C)(=O)Oc2ccc(C(C)C)cc2)c(=O)n(-c2ccccc2)n1C (configuration not stated),inactive: 3.1%
11,O=[N+]([O-])c1cc([N+](=O)[O-])c(Nc2ccccn2)c([N+](=O)[O-])c1,inactive: 2.83%
12,COc1ccc(OP(C)(=O)Nc2ccccc2Br)cc1 (configuration not stated),inactive: 4.35%
13,COc1ccccc1OP(C)(=O)Nc1ccc(C)c(C)c1 (configuration not stated),inactive: 13.7%
14,Cc1cc(C)cc(OP(C)(=O)Nc2cccc(C(F)(F)F)c2)c1 (configuration not stated),inactive: 3.67%
15,CP(=O)(Nc1ccc(Cl)cc1Cl)Oc1ccccc1 (configuration not stated),inactive: 3.17%
16,CP(=O)(OCCOc1ccccc1)OCCOc1ccccc1,inactive: -1.66%
17,Cc1nc2ccc3ccccc3c2o1.O=[N+]([O-])c1cc([N+](=O)[O-])c(O)c([N+](=O)[O-])c1,inactive: 8.81%
18,CP(=O)(OC12CC3CC(CC(C3)C1)C2)OC12CC3CC(CC(C3)C1)C2,inactive: 9.95%
19,CCOC(=O)c1ccc(NP(C)(=O)Oc2ccc(Cl)cc2)cc1 (configuration not stated),inactive: -0.91%
20,CCc1ccc(OP(C)(=O)Nc2cccnc2)cc1 (configuration not stated),inactive: 0.35%
21,CP(=O)(Oc1ccccc1)N1CCOC1=O (configuration not stated),inactive: 2.75%

row,Compound,activation
1,COc1ccccc1OP(C)(=O)Nc1c(C)n(C)n(-c2ccccc2)c1=O (configuration not stated),inactive: -0.03%
2,COc1ccc(OP(C)(=O)Nc2ccc(Br)cc2)cc1 (configuration not stated),inactive: 0.28%
3,CCN(CC)CC(O)COC(=O)C(O)(c1ccccc1)C1CCCCC1 (configuration not stated),inactive: -0.94%
4,CN(C)C(=O)c1c([N+](=O)[O-])cc([N+](=O)[O-])cc1[N+](=O)[O-],inactive: 4.21%
5,CP(=O)(Nc1ccc(Cl)cc1)Oc1ccc(F)cc1 (configuration not stated),inactive: 6.4%
6,COc1ccccc1OP(C)(=O)Nc1ccccc1Br (configuration not stated),inactive: -5.19%
7,CC(C)(C)c1ccc(OP(C)(=O)O)cc1,inactive: 6.2%
8,CCOP(C)(=S)SCC(=O)NC(C)(CC)C(=O)O (configuration not stated),inactive: -7.9%
9,Cc1ccccc1NP(C)(=O)Nc1ccccc1C,inactive: 4.23%
10,CP(=O)(Nc1ccc2c(c1)OCCO2)Oc1ccccc1 (configuration not stated),inactive: -4.17%
11,COc1ccc(NP(C)(=O)Oc2ccccc2OC)cc1 (configuration not stated),inactive: 2.22%
12,CN(C)CCOC(=O)C(O)(c1ccccc1)C1CCCCC1 (configuration not stated),inactive: -6.72%
13,COc1ccc(OP(C)(=O)Nc2cccc(Br)c2)cc1 (configuration not stated),inactive: -4.18%
14,O=[N+]([O-])c1cc([N+](=O)[O-])c(NCC2CCS(=O)(=O)C2)c([N+](=O)[O-])c1 (configuration not stated),inactive: 0.29%
15,COc1ccc(OP(C)(=O)Nc2ccc(SC(F)(F)F)cc2)cc1 (configuration not stated),inactive: 1.37%
16,CCOC(=O)c1ccc(NP(C)(=O)Oc2ccc(F)cc2)cc1 (configuration not stated),inactive: -2.45%
17,CP(=O)(Nc1ccccc1)Oc1ccc(F)cc1 (configuration not stated),inactive: -0.99%
18,CCN(CC)CCCOC(=O)C(O)(c1ccccc1)C1CCCCC1 (configuration not stated),inactive: -5.87%
19,CC(C)c1ccc(OP(C)(=O)Nc2ccc(SC(F)(F)F)cc2)cc1 (configuration not stated),inactive: -2.33%
20,CP(=O)(Nc1ccccc1F)Oc1ccccc1 (configuration not stated),inactive: 1.72%
21,O=C(OCCN1CCN(CCOCc2ccccc2)CC1)C(O)(c1ccccc1)c1ccccc1,inactive: -0.93%
